# Measurements taken from PubChem BioAssay AID648 (SRMLSC, 2007).
# The list shows a part of the results, in another mix than the full data. Activity calls are given as the source filed them.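 Rule for the calls: active = viability at or below 30%; inactive = viability above 30%.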
# Test: endothelial cell growth inhibition – HUVEC, 384-well, primary screen (AID 648);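 note: 100% = median luminescence of DMSO-only cell control wells on each plate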
# Conditions: HUVEC proliferation, CellTiter-Glo luminescence, 72 h; stronger effect = lower value; screened at 10 µM (by protocol)
row,Compound,viability
1,O=C(COc1ccccc1)OC1CN2CCC1CC2 (configuration not stated),inactive: 108%
2,COP1(=S)c2c(C)nn(CCC#N)c2N=C(c2ccc(F)cc2)N1C (configuration not stated),inactive: 104%
3,CCC(C)N(CC(C)C)C(=S)SC(NC(C)=O)C(Cl)(Cl)Cl (configuration not stated),inactive: 73.4%
4,O=C(OC1CN2CCC1CC2)C12CC3CC(CC(C3)C1)C2 (configuration not stated),inactive: 83.6%
5,ClCCSc1nnc(-c2cccnc2)o1,inactive: 91.5%
6,CCOP1(=S)c2c(C)nn(CCC#N)c2N=C(c2ccccc2F)N1C (configuration not stated),inactive: 101%
7,CCOP1(=S)c2c(C)nn(CCC#N)c2N=C(c2ccc(F)cc2)N1C (configuration not stated),inactive: 100%
8,Cc1cccc(OCC(=O)OC2CN3CCC2CC3)c1 (configuration not stated),inactive: 106%
9,Clc1n[nH]nc1-c1nn[nH][15n]1,inactive: 89.4%
10,O=P1(Nc2ccccn2)COc2ccccc2OC1,inactive: 98.2%
11,CC1(CBr)Cn2c(nc3ccccc3c2=O)S1 (configuration not stated),inactive: 90.8%
12,Cc1nn(-c2ccccc2)c2c1P(=O)(N1CCOCC1)N(C)C(c1ccccc1)=N2 (configuration not stated),inactive: 91.3%
13,Cc1ccc(OCC(=O)OC2CN3CCC2CC3)cc1 (configuration not stated),inactive: 90.3%
14,O=P1(Nc2ccc(Br)cn2)COc2ccccc2OC1,inactive: 92.5%
15,O=P1(Nc2ncccn2)COc2ccccc2OC1,inactive: 95.7%
16,O=C(OC1CN2CCC1CC2)c1cccc(Cl)c1 (configuration not stated),inactive: 90.2%
17,c1nnnn1CCn1cnnn1,inactive: 108%
18,O=P(Nc1nccs1)(c1ccccc1)c1ccccc1,inactive: 91.7%
19,O=P1(Nc2nc3ccc(Cl)cc3s2)COc2ccccc2O1 (configuration not stated),inactive: 93.5%
20,COC(=O)c1cc2c(s1)N=C(c1ccccc1)N(C)P2(=O)N1CCOCC1 (configuration not stated),inactive: 98.7%
21,CCOP(=O)(Nc1ccccc1)OCC,inactive: 88.8%
22,CN1CCCC(OC(=O)C(c2ccccc2)c2ccccc2)C1 (configuration not stated),inactive: 80.4%
23,Oc1ccccc1CNc1ccccn1,inactive: 92.7%
24,Cc1c2non([O-])c-2c(C)[n+](=O)[n+]1[O-],inactive: 92.6%
25,CCc1nc2c(n1)c1c(non1O)c1c2no[n+]1[O-],inactive: 62.9%
26,O=[N+]([O-])c1cccc2n[nH]nc12,inactive: 108%
27,CC1CCN(C(=O)Oc2c(Cl)cc(Cl)c3cccnc23)CC1,inactive: 102%
